Literature values in US8969358B2, “Buprenorphine analogs” (dated 2015).
pIC50: −log10 of the molar value.

Sequences of proteins named here, by UniProt entry; tags and fusion partners are left off. A change or cut given only in a name is not applied to a line headed by its entry.
UniProt P41146: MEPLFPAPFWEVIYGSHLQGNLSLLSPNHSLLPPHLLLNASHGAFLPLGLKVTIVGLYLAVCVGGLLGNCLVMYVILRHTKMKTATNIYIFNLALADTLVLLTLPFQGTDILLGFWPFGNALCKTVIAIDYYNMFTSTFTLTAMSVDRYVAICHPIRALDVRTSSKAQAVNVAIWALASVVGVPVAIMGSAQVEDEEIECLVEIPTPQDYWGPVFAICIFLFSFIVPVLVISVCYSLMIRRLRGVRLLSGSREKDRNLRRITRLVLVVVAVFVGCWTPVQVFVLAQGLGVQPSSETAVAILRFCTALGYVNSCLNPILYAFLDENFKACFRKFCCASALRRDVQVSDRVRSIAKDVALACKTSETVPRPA

Molecular target: ORL-1 (Homo sapiens (Human), UniProt P41146)
Details: read-out: IC50 (at least partial agonist for ORL-1); Wnendt et al., Molec. Pharmacol. 1999

7-benzylidenenaltrexone
pIC50: 5.00
